Assays:
Tdp1 = Tdp1 (Homo sapiens (Human), UniProt Q9NUW8); assay: Gel-based assay measuring the inhibition of recombinant Tdp1; assay type: biochemical
OVCAR-3 = assay: NCI screen cytotoxicity, ovarian OVCAR-3; details: read-out: Cytotoxicity (GI50 in μM) ovarian OVCAR-3; 50% growth inhibition

By UniProt entry, the sequences of proteins in these tests, tags left out.
UniProt Q9NUW8, whole entry: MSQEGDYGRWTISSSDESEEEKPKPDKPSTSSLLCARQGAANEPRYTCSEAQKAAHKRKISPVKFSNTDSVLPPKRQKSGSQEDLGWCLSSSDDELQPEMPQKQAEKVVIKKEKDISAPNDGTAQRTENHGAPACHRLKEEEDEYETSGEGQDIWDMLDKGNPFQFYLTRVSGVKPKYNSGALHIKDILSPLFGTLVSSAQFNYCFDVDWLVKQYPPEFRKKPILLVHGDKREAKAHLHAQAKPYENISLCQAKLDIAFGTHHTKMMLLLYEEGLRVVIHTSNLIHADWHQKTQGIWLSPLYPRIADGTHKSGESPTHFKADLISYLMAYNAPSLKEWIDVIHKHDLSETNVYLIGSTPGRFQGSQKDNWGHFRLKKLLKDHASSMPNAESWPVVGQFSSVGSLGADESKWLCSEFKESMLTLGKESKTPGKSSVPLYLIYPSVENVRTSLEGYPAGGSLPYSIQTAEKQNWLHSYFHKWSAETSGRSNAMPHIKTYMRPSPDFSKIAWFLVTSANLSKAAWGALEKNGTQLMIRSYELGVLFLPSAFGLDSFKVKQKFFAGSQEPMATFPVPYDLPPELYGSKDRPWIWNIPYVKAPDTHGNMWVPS

Compound	Tdp1 inhibitory activity (in words) (Tdp1)	GI50 (OVCAR-3) [µM]
CC(=O)OCCn1c2c(c3ccccc3c1=O)C(=O)c1ccccc1-2 [Compound 31, 2-(5,11-Dioxo-5H-indeno[1,2-c]isoquinolin6(11H)-yl)ethyl Acetate]	weakly active	–
N-(6-(5,11-Dioxo-5H-indeno[1,2-c]isoquinolin-6(11H)hexyl)-methanesulfonamide [Compound 84]	–	1.32

From patent US9402842B2, “Synthesis and use of dual tyrosyl-DNA phosphodiesterase I (Tdp1)—topoisomerase I (Top1) inhibitors” (Purdue Research Foundation, priority 2012, dated 2016)
